## Binding of CDR-mutated scFvs to a peptide of the spike HR2 region

Binding partner: SARS-CoV-2 spike HR2 peptide, sequence PDVDLGDISGINAS.

Each scFv is VH, the linker GGGGSGGGGSGGGGS, VL, as in the parent Ab-95, and differs from it in the CDRs of the light chain only.
VH: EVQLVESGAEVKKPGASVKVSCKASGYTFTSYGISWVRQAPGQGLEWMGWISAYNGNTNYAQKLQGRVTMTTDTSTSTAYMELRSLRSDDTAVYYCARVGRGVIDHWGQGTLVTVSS
VL: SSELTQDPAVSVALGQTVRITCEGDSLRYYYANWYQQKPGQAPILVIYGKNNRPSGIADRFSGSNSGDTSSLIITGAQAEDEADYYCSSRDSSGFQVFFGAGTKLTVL

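Variants in AAYL52 differ from the parent at up to three CDR positions; double and triple changes were sampled at random. Affinity was read by AlphaSeq, a pooled yeast mating assay with surface-displayed partners. Binding brings cells together so that they mate, and sequencing counts the barcode pairs among the diploids. Scores were corrected for input abundance and mapped to Kd with protein pairs of known affinity run in the same pool. There are three technical replicates.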

The parent's light chain CDRs are EGDSLRYYYAN, GKNNRPS, SSRDSSGFQVF; each variant's own CDRs replace them letter for letter.
Scale: log10 of Kd in nM, estimated from mating counts; low values are strong binders.
Averages over replicates are reported, and they cover detected replicates only.
Where no diploid with the target was found in that replicate, the entry reads "nd": below detection, most likely a poor binder, though not proof of it.

CDR-L1 | CDR-L2 | CDR-L3 | replicates, log10 nM | mean, log10 nM | control signals
EGDSLRYYYTD | GKQNRPS | SSRDSSGFQVF | 2.41 nd 3.44 | 2.92 | 3/9 (3.58)
EGDSLRYYYAN | GVNNRPQ | SSRDSEGFQVF | 2.63 3.79 3.44 | 3.29 | 2/9 (4.01)
AGNSLRYYYAN | GKNNRPS | SSRDSSGFQVL | 2.63 2.92 1.84 | 2.46 | 3/9 (3.32)
EGDPLRYYYAN | GANNRPS | SSRDSSGFQVF | 2.83 3.04 2.80 | 2.89 | 3/9 (3.80)
EGDSLRYYYAN | FTNNRPS | SKRDSSGFQVF | 4.28 nd 4.64 | 4.46 | 4/9 (4.23)
EGDSLRYYYAN | GDNNRPS | SSRESSGFPVF | 2.65 2.05 2.89 | 2.53 | 1/9 (2.39)
EGDSLRYYYAN | GKRNEPS | SSRDSSCFQVF | 3.36 3.93 4.16 | 3.82 | 5/9 (3.90)
EGDSLRYYYAN | GKNNRPS | SSIDSWGFQEF | 2.13 2.21 1.99 | 2.11 | 2/9 (4.46)
EGDSLIYYYAK | GKNNRPS | SSRDSSGFMVF | nd nd 3.95 | 3.95 | 0/9
EGDSLRYYYAN | GCNNRPS | DSRSSSGFQVF | nd nd nd | nd | 1/9 (4.00)
EMDSLRYYYAN | GKYNRPS | SSRHSSGFQVF | nd 5.52 nd | 5.52 | 3/9 (4.78)
EGDSLRYYYAN | NKNNRPS | SSRDSQGFQKF | nd nd nd | nd | 0/9
EGDSLRYYYAN | GKNNRPS | SSRDSSGREVE | 2.62 3.02 2.66 | 2.76 | 7/9 (4.16)
EGDSLRYYYAN | GKNNRPI | SHRDSSGFQVL | nd 2.60 nd | 2.60 | 2/9 (4.34)
EGDSLRYYYAN | GKNNRVS | SCRDSSGFQVF | 2.17 2.38 1.58 | 2.04 | 2/9 (4.27)
EGDSLRYYYAN | GKVNRPS | SSRDSSGFIVF | 3.65 4.22 3.12 | 3.66 | 2/9 (4.42)
ESDSLRYYYAN | GKNNEPS | SSRDSSGFQVP | nd nd nd | nd | 0/9
EGYSLRWYYAN | GKNNRPS | SSRDSSGFQVK | 4.08 nd 4.16 | 4.12 | 3/9 (3.65)
EGDSRQYYYAN | GKNNRPS | SSRDSAGFQVF | 2.41 3.76 2.92 | 3.03 | 3/9 (4.14)
HGDSLRYYYAN | GKNNRPS | CSRDSSQFQVF | 3.48 3.89 nd | 3.68 | 1/9 (3.94)
EGDSLRYYYAN | AKNNRPQ | VSRDSSGFQVF | 3.36 4.55 nd | 3.95 | 6/9 (4.00)
EGDWLRYYYAN | GKNNRPM | SSRDSPGFQVF | 3.67 4.03 4.30 | 4.00 | 4/9 (3.54)
EVDSLRYYYAN | GKNNDPS | SSRNSSGFQVF | 2.55 2.64 3.56 | 2.92 | 3/9 (4.35)
EMDSLRYYYAD | GKNNRPS | SSRDSSGFQVF | 4.69 2.95 nd | 3.82 | 3/9 (3.54)
EGDSLRYTYAN | GKNNRPS | SSRDLSGFPVF | 1.73 1.94 1.61 | 1.76 | 5/9 (4.07)
EGDSLGYYYAN | GDNNRPS | SSRDSSGFQVF | 1.53 1.62 1.17 | 1.44 | 3/9 (3.60)
EGDSLRYYIWN | GKNNRPS | SSEDSSGFQVF | 4.18 nd 4.40 | 4.29 | 2/9 (3.78)
EGDSLRYYYAN | GKNPRPS | SSRDSCGCQVF | nd 4.25 nd | 4.25 | 4/9 (4.26)
ENDSLRYYYAN | GKNNRPS | TSRDSSGFQQF | 3.16 nd 4.06 | 3.61 | 1/9 (3.47)
EGDSLRYYYAN | GKNNRPS | RSRDNSCFQVF | 2.18 1.98 1.47 | 1.87 | 3/9 (3.71)
EGDSLRWYYAN | GKNRRPS | CSRDSSGFQVF | 5.30 4.05 nd | 4.68 | 4/9 (4.30)
EGDSLRYYYAN | GKNGRPS | SFRDSSGFQVF | nd nd nd | nd | 2/9 (3.40)
MGDSLRYYYAN | GKNWRPG | SSRDSSGFQVF | 3.72 3.69 3.85 | 3.76 | 3/9 (4.50)
EGDSWRYYYAN | GCNNRPC | SSRDSSGFQVF | nd nd nd | nd | 1/9 (3.84)

The first 3 entries again:

CDR-L1	CDR-L2	CDR-L3	replicates, log10 nM	mean, log10 nM	control signals
EGDSLRYYYTD	GKQNRPS	SSRDSSGFQVF	2.41 nd 3.44	2.92	3/9 (3.58)
EGDSLRYYYAN	GVNNRPQ	SSRDSEGFQVF	2.63 3.79 3.44	3.29	2/9 (4.01)
AGNSLRYYYAN	GKNNRPS	SSRDSSGFQVL	2.63 2.92 1.84	2.46	3/9 (3.32)

Parent in this assay: reference entry 2.31, copy in this library 2.25.
Three control strains display no target. For library AAYL52, 28% of the pairings with them gave a signal, with a median of 3.91 and one signal in twenty below 2.90, so weak values seen in few replicates may be background. Also given: how often the same scFv was detected with the empty control strains, with their mean in brackets.

Data: MIT Lincoln Laboratory AlphaSeq set, Engelhart et al. 2022, doi:10.1038/s41597-022-01779-4, as distributed in FLAb.